The record followed here is BindingDB's records for doi:10.3109/14756366.2010.616860 (Slovak University of Technology, 2012).

This assay has as its target T1, Serine protease 1 (Bos taurus, UniProt P00760).
T1 sequence (P00760 whole entry): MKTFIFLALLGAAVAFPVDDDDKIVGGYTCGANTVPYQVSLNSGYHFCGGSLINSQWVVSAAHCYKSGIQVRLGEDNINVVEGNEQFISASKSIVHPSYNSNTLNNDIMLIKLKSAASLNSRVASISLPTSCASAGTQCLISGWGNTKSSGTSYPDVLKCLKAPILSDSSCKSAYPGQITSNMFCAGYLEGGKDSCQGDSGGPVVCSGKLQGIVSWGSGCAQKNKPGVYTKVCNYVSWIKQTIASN
Kind of assay: Enzyme Assay. Conditions: pH 8. The protocol: Data scanning time was set to the 1st and 61st minute after the reaction start. Rutin, esculin, phloridzin and their esters were initially solubilized at a concentration of 10 mM in dimethyl sulphoxide (DMSO) and subsequently incorporated in the reaction mixture to final concentrations in the range of 1-50 μM. Samples were run in triplicate in 96-well plates by MRX microplate reader. Each experiment was performed in triplicate.

Broadly, the IC50 is the concentration that inhibits the measured activity by half. The low end stands for greater potency, the high end for weaker potency. For the compound `O=c1c(O)c(-c2ccc(O)c(O)c2)oc2cc(O)cc(O)c12` [2-(3,4-dihydroxyphenyl)-3,5,7-trihydroxy-chromone;hydrate], the IC50 is 10 µM.
